In this assay the target is JAK2 (JH1domain-catalytic, Y1007F,Y1008F) kinase (Homo sapiens (Human), UniProt O60674, Y1007F/Y1008F). The assay can be described thus: biochemical.

Chains of the proteins cited; added tags and fusions are not shown. Residues count along the entry.
UniProt O60674, 849-1124 Y1007F/Y1008F: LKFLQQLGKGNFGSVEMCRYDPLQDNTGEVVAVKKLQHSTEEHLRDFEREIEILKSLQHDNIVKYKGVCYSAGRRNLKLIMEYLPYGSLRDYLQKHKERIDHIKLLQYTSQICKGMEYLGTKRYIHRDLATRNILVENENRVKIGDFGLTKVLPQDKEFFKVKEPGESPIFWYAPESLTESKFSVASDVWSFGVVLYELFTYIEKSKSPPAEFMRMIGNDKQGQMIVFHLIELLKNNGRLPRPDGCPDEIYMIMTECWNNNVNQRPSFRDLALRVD

From patent publication US11691963B2, “6-heteroaryloxy benzimidazoles and azabenzimidazoles as JAK2 inhibitors” (Ajax Therapeutics, Inc., priority 2020, dated 2023) come the findings set out here.

One may read the Kd as the concentration at which binding is half-saturated. The compound `CC(=O)Nc1cc(Oc2cnc3nc(Nc4cc(C(C)(C)C)n([C@@H]5CCC[C@@H]5O)n4)n(C)c3c2)ccn1` (single isomer, unassigned) [Example I-162-b] had a Kd of 10 to 50 nM.

`CC(=O)Nc1cc(Oc2cnc3nc(Nc4cc(C(C)(C)C)n(C[C@H]5CCN(CC(F)(F)F)C5)n4)n(C)c3c2C)ccn1` (single isomer, unassigned) [Example I-128-b] came in with a Kd of 50 to 1000 nM.

For `CC(=O)Nc1cc(Oc2ccc3nc(Nc4cc5c(c(C(F)(F)F)c4)C(C)(C)N(C)C5=O)n(C)c3c2)ccn1` [Example I-49, N-(4-((1-methyl-2-((1,1,2-trimethyl-3-oxo-7-(trifluoromethyl)isoindolin-5-yl)amino)-1H-benzo[d]imidazol-6-yl)oxy)pyridin-2-yl)acetamide], the Kd was 10 to 50 nM.

With `CO[C@@H]1CCOC[C@@H]1n1cc(C(F)(F)F)cc(Nc2nc3ccc(Oc4ccnc(NC(C)=O)c4)cc3n2C)c1=O` (single isomer, unassigned) [Example I-60-b], the Kd is below 10 nM.

`CN1CCC(n2nc(Nc3nc4ncc(Oc5ccnc(NC(=O)C6CC6)c5)cc4n3C)cc2C(C)(C)C)C1` (single isomer, unassigned) [Example I-169-b] had a Kd of 10 to 50 nM.

Compound `CC(=O)Nc1cc(Oc2ccc3nc(Nc4nc5c(s4)CCC(C)(C)C5)n(C)c3c2C)ccn1` [Example I-43, N-(4-((2-((5,5-dimethyl-4,5,6,7-tetrahydrobenzo[d]thiazol-2-yl)amino)-1,7-dimethyl-1H-benzo[d]imidazol-6-yl)oxy)pyridin-2-yl)acetamide] yielded a Kd of 1000 to 5000 nM.

`CC(=O)Nc1cc(Oc2cnc3nc(Nc4cc(C(C)(C)C)n(CCC#N)n4)n(C)c3c2C)ccn1` [Example I-136, N-(4-((2-((5-(tert-butyl)-1-(2-cyanoethyl)-1H-pyrazol-3-yl)amino)-1,7-dimethyl-1H-imidazo[4,5-b]pyridin-6-yl)oxy)pyridin-2-yl)acetamide] yielded a Kd below 10 nM.

In turn, `CO[C@@H]1CC[C@@H]1Cn1cc(C2CC2)cc(Nc2nc3ccc(Oc4ccnc(NC(C)=O)c4)cc3n2C)c1=O` (single isomer, unassigned) [Example I-76-a] showed a Kd below 10 nM.

Regarding `CC(=O)Nc1cc(Oc2cnc3nc(Oc4cc(C5CC5)cn(C(C)C)c4=O)n(C)c3c2)ccn1` [Example I-97, N-(4-((2-((5-cyclopropyl-1-isopropyl-2-oxo-1,2-dihydropyridin-3-yl)oxy)-1-methyl-1H-imidazo[4,5-b]pyridin-6-yl)oxy)pyridin-2-yl)acetamide], the Kd was 10 to 50 nM.

Compound `CC(=O)Nc1cc(Oc2cnc3nc(Nc4cc(C(C)(C)C)n(CC(F)F)n4)n(C)c3c2)ccn1` [Example I-132, N-(4-((2-((5-(tert-butyl)-1-(2,2-difluoroethyl)-1H-pyrazol-3-yl)amino)-1-methyl-1H-imidazo[4,5-b]pyridin-6-yl)oxy)pyridin-2-yl)acetamide] registered a Kd below 10 nM.

As to `CC(=O)Nc1cc(Oc2ccc3nc(Nc4cc(C5CC5)cn([C@@H]5CCCOC5)c4=O)n(C)c3n2)ccn1` (single isomer, unassigned) [Example I-67-a], the Kd was below 10 nM.

As to `COCCN1CC[C@@H](n2nc(Nc3nc4ncc(Oc5ccnc(NC(=O)C6CC6)c5)c(Cl)c4n3C)cc2C(C)(C)C)C1` [Example I-182, (R)—N-(4-((2-((5-(tert-butyl)-1-(1-(2-methoxyethyl)pyrrolidin-3-yl)-1H-pyrazol-3-yl)amino)-7-chloro-1-methyl-1H-imidazo[4,5-b]pyridin-6-yl)oxy)pyridin-2-yl)cyclopropanecarboxamide], the Kd is below 10 nM.

In turn, `CC(=O)Nc1cc(Oc2ccc3nc(Nc4cc(C(F)(F)F)n(C5CC6(C5)CN(C(C)=O)C6)n4)n(C)c3c2)ccn1` [Example I-39, N-(4-((2-((1-(2-acetyl-2-azaspiro[3.3]heptan-6-yl)-5-(trifluoromethyl)-1H-pyrazol-3-yl)amino)-1-methyl-1H-benzo[d]imidazol-6-yl)oxy)pyridin-2-yl)acetamide] came in with a Kd below 10 nM.

For `CO[C@H]1CCOC[C@@H]1n1cc(C(F)(F)F)cc(Nc2nc3ccc(Oc4ccnc(NC(C)=O)c4)cc3n2C)c1=O` (single isomer, unassigned) [Example I-59-b], the Kd is 10 to 50 nM.

As to `CC(=O)Nc1cc(Oc2cnc3nc(Nc4cc(C5CC5)cn(C)c4=O)n(C)c3c2)ccn1` [Example I-103, N-(4-((2-((5-cyclopropyl-1-methyl-2-oxo-1,2-dihydropyridin-3-yl)amino)-1-methyl-1H-imidazo[4,5-b]pyridin-6-yl)oxy)pyridin-2-yl)acetamide], the Kd was below 10 nM.

`CC(=O)Nc1cc(Oc2cnc3nc(Nc4cc(C(C)(C)C)n(CCF)n4)n(C)c3c2)ccn1` [Example I-130, N-(4-((2-((5-(tert-butyl)-1-(2-fluoroethyl)-1H-pyrazol-3-yl)amino)-1-methyl-1H-imidazo[4,5-b]pyridin-6-yl)oxy)pyridin-2-yl)acetamide] returned a Kd below 10 nM.

On to `CC(=O)Nc1cc(Oc2ccc3nc(Nc4cc(C5CC5)nn(C)c4=O)n(C)c3n2)ccn1` [Example I-86, N-(4-((2-((6-cyclopropyl-2-methyl-3-oxo-2,3-dihydropyridazin-4-yl)amino)-3-methyl-3H-imidazo[4,5-b]pyridin-5-yl)oxy)pyridin-2-yl)acetamide], for which the Kd was in the range of 50 to 1000 nM.

For `CC(=O)Nc1cc(Oc2cnc3nc(Nc4cc5n(n4)CCCC5(C)C)n(C)c3c2C#N)ccn1` [Example I-209, N-(4-((7-chloro-2-((4,4-dimethyl-4,5,6,7-tetrahydropyrazolo[1,5-c]pyridin-2-yl)amino)-1-methyl-1H-imidazo[4,5-b]pyridin-6-yl)oxy)pyridin-2-yl)acetamide], the Kd was below 10 nM.

`CC(=O)Nc1cc(Oc2ccc3nc(Nc4cc(C(C)(C)C)nn4[C@@H]4CCOC4)n(C)c3c2)ccn1` [Example I-23, (R)—N-(4-((2-((3-(tert-butyl)-1-(tetrahydrofuran-3-yl)-1H-pyrazol-5-yl)amino)-1-methyl-1H-benzo[d]imidazol-6-yl)oxy)pyridin-2-yl)acetamide] had a Kd of 1000 to 5000 nM.

`CC(=O)Nc1cc(Oc2cnc3nc(Nc4cc(C5CC5)cn(C)c4=O)n(C)c3c2C#N)ccn1` [Example I-207, N-(4-((7-cyano-2-((5-cyclopropyl-1-methyl-2-oxo-1,2-dihydropyridin-3-yl)amino)-1-methyl-1H-imidazo[4,5-b]pyridin-6-yl)oxy)pyridin-2-yl)acetamide]: the Kd was 10 to 50 nM.

Compound `COC1CN(c2cc(Nc3nc4ccc(Oc5ccnc(NC(C)=O)c5)cc4n3C)cc(C(F)(F)F)c2)C1` [Example I-7, N-(4-((2-((3-(3-methoxyazetidin-1-yl)-5-(trifluoromethyl)phenyl)amino)-1-methyl-1H-benzo[d]imidazol-6-yl)oxy)pyridin-2-yl)acetamide] came in with a Kd of 50 to 1000 nM.

For the compound `CC(=O)Nc1cc(Oc2ccc3nc(Nc4cc(C5CC5)cn([C@@H]5CC[C@H]5O)c4=O)n(C)c3c2)ccn1` (single isomer, unassigned) [Example I-79-a], the Kd was below 10 nM.

`CC(=O)Nc1cc(Oc2ccc3nc(Nc4cc(C5CC5)cn([C@H]5CC[C@H]5O)c4=O)n(C)c3c2)ccn1` (single isomer, unassigned) [Example I-78-b]: the Kd was 10 to 50 nM.

Turning to `CC(=O)Nc1cc(Oc2cnc3nc(Nc4cc(C(F)(F)F)cn(C)c4=O)n(C)c3c2C#N)ccn1` [Example I-211], the Kd is below 10 nM.

In turn, `CC(=O)Nc1cc(Oc2cnc3nc(Nc4cc(C(C)(C)C)n([C@H]5C[C@@H](O)C5)n4)n(C)c3c2C)ccn1` [Example I-123, N-(4-((2-((5-(tert-butyl)-1-((1s,3s)-3-hydroxycyclobutyl)-1H-pyrazol-3-yl)amino)-1,7-dimethyl-1H-imidazo[4,5-b]pyridin-6-yl)oxy)pyridin-2-yl)acetamide] had a Kd below 10 nM.

The compound `CC(=O)Nc1cc(Oc2ccc3nc(Nc4cc(C5CC5)cn(C[C@@H]5CC[C@@H]5O)c4=O)n(C)c3c2)ccn1` (single isomer, unassigned) [Example I-77-b] displayed a Kd below 10 nM.

For the compound `COc1c(Oc2ccnc(NC(C)=O)c2)cnc2nc(Nc3cc(C(C)(C)C)n(CC(F)F)n3)n(C)c12` [Example I-188, N-(4-((2-((5-(tert-butyl)-1-(2,2-difluoroethyl)-1H-pyrazol-3-yl)amino)-7-methoxy-1-methyl-1H-imidazo[4,5-b]pyridin-6-yl)oxy)pyridin-2-yl)acetamide], the Kd was below 10 nM.

As to `COCCN1CC[C@H](n2nc(Nc3nc4ncc(Oc5ccnc(NC(=O)C6CC6)c5)cc4n3C)cc2C(C)(C)C)C1` [Example I-173, (S)—N-(4-((2-((5-(tert-butyl)-1-(1-(2-methoxyethyl)pyrrolidin-3-yl)-1H-pyrazol-3-yl)amino)-1-methyl-1H-imidazo[4,5-b]pyridin-6-yl)oxy)pyridin-2-yl)cyclopropanecarboxamide], the Kd fell in the range of 10 to 50 nM.

`Cn1c(Nc2cc(C(C)(C)C)on2)nc2ccc(Oc3ccnc(NC(=O)[C@@H]4CC4(F)F)c3)cc21` (single isomer, unassigned) [Example I-50-b] displayed a Kd of 50 to 1000 nM.

As to `CC(=O)Nc1cc(Oc2ccc3nc(Nc4cc(C(F)(F)F)n(C[C@H]5CC[C@H](O)CC5)n4)n(C)c3c2)ccn1` [Example I-38, N-(4-((2-((1-(((1r,4r)-4-hydroxycyclohexyl)methyl)-5-(trifluoromethyl)-1H-pyrazol-3-yl)amino)-1-methyl-1H-benzo[d]imidazol-6-yl)oxy)pyridin-2-yl)acetamide], the Kd lay within 50 to 1000 nM.

`CC(=O)Nc1cc(Oc2ccc3nc(Nc4nc5c(s4)CC(C)(C)CC5)n(C)c3c2C)ccn1` [Example I-44, N-(4-((2-((6,6-dimethyl-4,5,6,7-tetrahydrobenzo[d]thiazol-2-yl)amino)-1,7-dimethyl-1H-benzo[d]imidazol-6-yl)oxy)pyridin-2-yl)acetamide] yielded a Kd of 50 to 1000 nM.

As for `CC(=O)Nc1cc(Oc2ccc3nc(Nc4ccc(C(C)(C)C#N)cc4)n(C)c3c2)ccn1` [Example I-8, N-(4-((2-((4-(2-cyanopropan-2-yl)phenyl)amino)-1-methyl-1H-benzo[d]imidazol-6-yl)oxy)pyridin-2-yl)acetamide], the Kd was in the range of 50 to 1000 nM.

The compound `CC(=O)Nc1cc(Oc2ccc3nc(Nc4cc(C5CC5)cn([C@H]5CC[C@@H]5O)c4=O)n(C)c3c2)ccn1` (single isomer, unassigned) [Example I-79-b] returned a Kd below 10 nM.
